# Reference: the supplement of paper PMC10127200
# Most of the highest values are listed elsewhere, so they are rarer here than in the full data.
# How the values were obtained:
# Assay in all cases: Euclidean distance of Cell Painting phenotypic profile (signed KS, 77 features) to DMSO centroid (dimensionless distance); higher = stronger phenotypic change vs DMSO (phenoactivity)
# Settings in all cases: 48 h; 5 or 10 uM (library dependent)
# [1] = tested on: 786-O
# Outline: (§1)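 Five cancer lines, together with a healthy fibroblast line, received library compounds for 48 h at a library-dependent 10 or 5 uM and 0.1% DMSO final. Harmony then derived 77 features from confocal 20X images (9 fields/well) of the stained cells, scoring each as a signed Kolmogorov-Smirnov statistic against same-plate vehicle wells. After plate-position correction, correlation weighting and replicate averaging at the top dose, phenoactivity was taken as each profile's Euclidean distance to the median vehicle profile.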
# [2] = tested on: A549
# Outline: as §1
# [3] = tested on: DU145
# Outline: as §1
# [4] = tested on: FB
# Outline: as §1
# [5] = tested on: HEPG2
# Outline: as §1
# [6] = tested on: OVCAR4
# Outline: as §1
compound,measurement,setting,value
COc1cc(Br)c(C[N+]2(CCOCCC3CCC4CC3C4(C)C)CCOCC2)cc1OC (stereo unspecified) [Pinaverium bromide],Euclidean distance,[1],1.4
same,Euclidean distance,[2],1.3
same,Euclidean distance,[3],1.49
same,Euclidean distance,[4],1.51
same,Euclidean distance,[5],1.01
same,Euclidean distance,[6],1.24
